Compound activity (PubChem)
ALR inh: blocks human ALR sulfhydryl oxidase activity | inhibition, % (concentration not given with the values) | AID 485317 | P55789 | 290,000 tested, 3.8% active | purified ALR, DTT oxidation, H2O2 HRP-luminol luminescence;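 active = mean and each replicate at 75% or more; inconclusive = only one of the two met; inactive = neither met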;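 note: stock transfer was 7.5 nL into about 7.5 µL; 0% = neutral wells and 100% = wells with inactivated enzyme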
UUG fidelity: alters start codon recognition fidelity in yeast; AID 602363; activity score, % at 18.7 µM; 350,000 tested, 0.13% active; S. cerevisiae UUG-firefly luciferase reporter, luminescence/redox ratio;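 active means replicate mean at a twofold rise or more, about +100% in these data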;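 further: firefly luciferase made from a UUG start codon reports start codon fidelity; reporter light over untreated wells divided by growth signal over untreated wells; some hits fall short of that in this replicate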
NALP1 inh: blocks the NALP1 inflammasome reconstituted in yeast; inhibition, % at 10 µM; 280,000 compounds, 0.61% hits; S. cerevisiae NALP1/ASC/caspase-1 growth, X-gal OD620, 72 h; in the data active = inhibition mostly above about 24%, no sharp cut-off; inactive = mostly below about 32%
MC4R barr agon: agonists of human melanocortin 4 receptor (MC4R) beta-arrestin; U2OS MC4R beta-arrestin complementation, luminescence; percent of melanotan II response, DMSO zero; activation, % at 8.9 µM; 360,000 compounds, 0.98% hits; AID 540308;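 active = activation above a per-plate cutoff, the mean activation of sample wells on that plate plus 3 SD, cut at about 8% in these data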
MC4R antagonist: blocks human MC4R cAMP signaling | MC4R-expressing cells, MTII-stimulated cAMP, LANCE TR-FRET | P32245 | AID 540295 | 360,000 compounds, 0.48% hits | inhibition, % at 6.5 µM;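 active = inhibition above its plate's cutoff, the mean of tested wells on that plate plus 3 SD, cut at about 29% in these data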;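 also: 0% = Melanotan II alone and 100% = Melanotan II plus saturating MCL0020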
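Material: human MC4R-expressing U2OS cells. Probe or stimulus: Melanotan II challenge. Dosing: 6.5 µM single dose. Times: 30-min compound, 1-h challenge, 1-h detection, room temperature. Technique: TR-FRET with Eu-cAMP and labeled anti-cAMP, 671 nm. Replication: singlicate.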
HDAC3 inh: inhibitors of human histone deacetylase 3 | O15379 | 320,000 compounds, 0.15% hits | recombinant HDAC3, fluorogenic peptide/trypsin coupled, fluorescence | inhibition, % at 8.3 µM | AID 2718; in the data active = inhibition above about 26%, passing the limit was not always enough; inconclusive = no clear call, values can overlap the other calls
* = called active by the depositor; ? = inconclusive; / = no result. Hits are enriched below; roughly 4.2% of the tested compounds scored in any of these assays.

Sample of the layout, four compounds:
Second line of a record: ALR inh	UUG fidelity	NALP1 inh	MC4R barr agon	MC4R antagonist	HDAC3 inh
COc1cc(/C=C/C(=O)c2ccc(F)cc2)cc(OC)c1OC
→ 97*	11	13	-1	11	17
COc1cc(C(=O)/C=C/c2cccnc2)ccc1O
→ 100*	-13	19	1	-11	2
CCCNC(=O)N[C@H]1CC[C@H](CC(=O)NC2CCCCC2)O[C@H]1CO
→ /	-10	/	/	/	/
O=C(Nc1ccccc1F)N[C@@H]1CC[C@H](CCNC(=O)C2CCC2)O[C@H]1CO
→ /	-12	/	/	/	/

Results, from the start:
Second line of a record: ALR inh	UUG fidelity	NALP1 inh	MC4R barr agon	MC4R antagonist	HDAC3 inh
COc1cc(/C=C/C(=O)c2ccc(F)cc2)cc(OC)c1OC
→ 97*	11	13	-1	11	17
COc1cc(C(=O)/C=C/c2cccnc2)ccc1O
→ 100*	-13	19	1	-11	2
CCCNC(=O)N[C@H]1CC[C@H](CC(=O)NC2CCCCC2)O[C@H]1CO
→ /	-10	/	/	/	/
O=C(Nc1ccccc1F)N[C@@H]1CC[C@H](CCNC(=O)C2CCC2)O[C@H]1CO
→ /	-12	/	/	/	/
COc1ccc(NC(=O)Nc2ccc3c(c2)[C@H]2C[C@H](CC(=O)NCc4ccncc4)O[C@@H](CO)[C@H]2O3)cc1
→ /	-10	/	/	/	/
CCNC(=O)C[C@H]1CC[C@H](NC(=O)C2CC2)[C@H](CO)O1
→ /	3	/	/	/	/
COc1ccc(C(=O)/C=C/c2ccc(OCc3ccccc3)cc2)cc1CSCC(=O)O
→ 99*	-16	6	0	2	7
COCC(=O)Nc1ccc2c(c1)OC[C@@H](C)N(Cc1ccncc1)C[C@H](C)[C@@H](OC)CN(C)C2=O
→ /	-2	/	/	/	/
C=CCOc1ccccc1CNc1ccc2[nH]c(=O)[nH]c2c1
→ 99*	-4	-2	2	10	-5
C=CCOc1ccccc1CNc1cccc(F)c1
→ 45	/	28	1	10	4
C=CCOc1c(Cl)cc(CNc2ccc3[nH]c(=O)[nH]c3c2)cc1OC
→ 98*	/	23	0	14	-6
COc1cccc(CNc2ccc3[nH]c(=O)[nH]c3c2)c1OCc1ccccc1F
→ 99*	-10	30	0	24	-3
COc1cc(CNc2ccc3[nH]c(=O)[nH]c3c2)ccc1OCc1ccccc1Cl
→ -55	-17	19	4	3	/
C[C@@H]1CN([C@H](C)CO)C(=O)c2cc(NS(=O)(=O)c3ccccc3)ccc2O[C@@H](C)CCCCO[C@@H]1CN(C)S(=O)(=O)c1cccs1
→ /	-16	/	/	/	/
CC(=O)N[C@H]1CC[C@@H](CC(=O)NCc2ccc(Cl)cc2)O[C@@H]1CO
→ /	-12	/	/	/	/
CN(C)C(=O)C[C@H]1C=C[C@H](NC(=O)C2CCC2)[C@H](CO)O1
→ /	-4	/	/	/	/
Oc1ccc(/C=N/Nc2cc(N3CCCC3)nc(N3CCCC3)n2)cc1O
→ 90*	/	-45	0	6	7
Cc1cc(N/N=C/c2ccc(O)cc2O)nc(N2CCOCC2)n1
→ 97*	-10	6	-1	-31	-5
Oc1ccc(/C=N\Nc2cc(N3CCOCC3)nc(N3CCOCC3)n2)c(O)c1
→ 85*	-5	26	1	-17	10
COc1ccc(/C=N/Nc2nc(N3CCCC3)nc(N3CCCC3)n2)cc1
→ 10	-16	18	-1	15	-1
COc1ccc(/C=N/Nc2nc(N3CCCC3)nc(N3CCCC3)n2)cc1O
→ 99*	-59	3	-1	3	5
C[C@@H]1CN([C@H](C)CO)C(=O)c2cc(NC(=O)Nc3ccc4c(c3)OCO4)ccc2O[C@@H](C)CCCCO[C@H]1CN(C)Cc1ccc(Cl)c(Cl)c1
→ /	12	/	/	/	/
CN(C)c1cccc(NC(=O)CCc2ccccc2)c1
→ 98*	-7	13	0	-9	4
CCN(C(=S)NC(=O)CCc1ccccc1)c1ccccc1
→ 77*	/	28	-1	8	15
CC(=O)Nc1cccc(NC(=O)CCc2ccccc2)c1
→ -2	-4	-5	-1	14	-11
CCN(CCCNC(=O)CN(C)S(=O)(=O)c1ccc2c(c1)CCC(=O)N2)c1cccc(C)c1
→ 96*	-4	-4	-2	4	-3
Cc1ccc(CNC(=O)CN(C)S(=O)(=O)c2cccc3nsnc23)cc1
→ -5	/	34	0	0	-5
Cc1ccccc1NC(=O)CCNS(=O)(=O)c1ccc2c(c1)CCC(=O)N2
→ -3	-12	3	-1	7	-2
CCN(CCCNC(=O)CN(C)S(=O)(=O)c1cccc2nsnc12)c1cccc(C)c1
→ 99*	-1	8	0	1	0
CCN(CCNC(=O)CN(C)S(=O)(=O)c1cccc2nsnc12)c1ccccc1
→ 98*	-24	22	1	7	1
CCN(CC)c1ccc(NC(=O)CCNS(=O)(=O)c2ccc3c(c2)CCC(=O)N3)c(C)c1
→ 99*	-10	6	0	1	?
